The compound `O=C1[O][Pt-2]2([NH2+]CCCC[NH2+]2)[O]C(=O)C12CCC2` [Compound No. 2, cis-Cyclobutane-1,1-dicarboxylato-1,4-butanediamine Platinum] came in with a Solubility in water of over 5000 µg/mL.
Under `CCC(N)CCCN.O=C([O-])C1(C(=O)[O-])CCOCC1.[Pt+2]` [Compound No. 12, cis-4-Oxacyclohexane-1,1-dicarboxylato-1-ethyl-1,4-butanediamine platinum] stands over 5000 µg/mL; under `CC(N)CCCN.O=C([O-])C1(C(=O)[O-])CCC1.[Pt+2]` [Compound No. 7, cis-Cyclobutane-1,1-dicarboxylato-1-methyl-1,4-butanediamine platinum], over 5000 µg/mL.
With `CCC(CN)CCN.O=C([O-])C1(C(=O)[O-])CCC1.[Pt+2]` [Compound No. 32, cis-Cyclobutane-1,1-dicarboxylato-2-ethyl-1,4-butanediamine platinum] the figure was over 5000 µg/mL.

The values are drawn from US4921984A, “Novel platinum complexes” (Nippon Kayaku Kabushiki Kaisha, priority 1985, dated 1990).
